In paper PMC3655773 (Acta pharmaceutica Sinica. B, 2012):

Assay: Pharmacokinetic assay in rat
Conditions: male SD rats
[1] = i.g. 20 mg/kg in 10% PEG400, parent 3 measured

Tmax [1] | F (oral bioavailability) (i.g. 20 mg/kg vs 3 i.v. 2 mg/kg, dose-normalized AUC(0-t)) | Vd [1] | AUC(0-t) (i.g. 20 mg/kg in 10% PEG400, plasma parent compound 3 measured) | Substance
30 min | 10.3% | – | – | 2-Oxo-2-[(3′, 4′-di-O-(S)-camphanoyl-4-methyl-(+)-cis-kellactone-3-yl)methoxy] acetic acid [Compound 5]
– | – | 0.373 ± 0.193 L/kg | 354.2 ± 105.6 ng·L/mL | 2-Oxo-2-[(3′, 4′-di-O-(S)-camphanoyl-4-methyl-(+)-cis-kellactone-3-yl)methoxy] acetic acid [Compound 7]
